Test results published in publication PMC2980575 (Analytical biochemistry, 2010).

Molecular target: T1, HDAC8 (Homo sapiens, UniProt Q9BY41)
T1 sequence (Q9BY41 1-377): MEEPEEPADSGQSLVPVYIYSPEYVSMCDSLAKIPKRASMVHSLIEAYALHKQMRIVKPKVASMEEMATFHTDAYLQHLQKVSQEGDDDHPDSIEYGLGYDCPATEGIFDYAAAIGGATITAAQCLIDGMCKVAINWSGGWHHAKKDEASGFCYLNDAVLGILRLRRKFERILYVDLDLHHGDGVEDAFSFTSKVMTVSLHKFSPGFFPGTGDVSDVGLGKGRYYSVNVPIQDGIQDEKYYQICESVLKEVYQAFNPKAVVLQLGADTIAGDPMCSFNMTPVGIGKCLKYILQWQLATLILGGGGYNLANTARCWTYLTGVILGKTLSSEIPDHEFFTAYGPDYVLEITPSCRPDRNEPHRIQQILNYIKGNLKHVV
Assay: Trypsin-coupled steady-state kinetic assay with Fluor de Lys substrate
Assay type: biochemical

## O=C(CCCCCCC(=O)Nc1ccccc1)NO [SAHA, suberoylanilide hydroxamic acid]
  Ki: 290 ± 40 nM
